# According to ChEMBL document CHEMBL5518240 (J Med Chem, 2024):
# By UniProt entry, the sequences of proteins in these tests, tags left out.
# UniProt Q09472, whole entry: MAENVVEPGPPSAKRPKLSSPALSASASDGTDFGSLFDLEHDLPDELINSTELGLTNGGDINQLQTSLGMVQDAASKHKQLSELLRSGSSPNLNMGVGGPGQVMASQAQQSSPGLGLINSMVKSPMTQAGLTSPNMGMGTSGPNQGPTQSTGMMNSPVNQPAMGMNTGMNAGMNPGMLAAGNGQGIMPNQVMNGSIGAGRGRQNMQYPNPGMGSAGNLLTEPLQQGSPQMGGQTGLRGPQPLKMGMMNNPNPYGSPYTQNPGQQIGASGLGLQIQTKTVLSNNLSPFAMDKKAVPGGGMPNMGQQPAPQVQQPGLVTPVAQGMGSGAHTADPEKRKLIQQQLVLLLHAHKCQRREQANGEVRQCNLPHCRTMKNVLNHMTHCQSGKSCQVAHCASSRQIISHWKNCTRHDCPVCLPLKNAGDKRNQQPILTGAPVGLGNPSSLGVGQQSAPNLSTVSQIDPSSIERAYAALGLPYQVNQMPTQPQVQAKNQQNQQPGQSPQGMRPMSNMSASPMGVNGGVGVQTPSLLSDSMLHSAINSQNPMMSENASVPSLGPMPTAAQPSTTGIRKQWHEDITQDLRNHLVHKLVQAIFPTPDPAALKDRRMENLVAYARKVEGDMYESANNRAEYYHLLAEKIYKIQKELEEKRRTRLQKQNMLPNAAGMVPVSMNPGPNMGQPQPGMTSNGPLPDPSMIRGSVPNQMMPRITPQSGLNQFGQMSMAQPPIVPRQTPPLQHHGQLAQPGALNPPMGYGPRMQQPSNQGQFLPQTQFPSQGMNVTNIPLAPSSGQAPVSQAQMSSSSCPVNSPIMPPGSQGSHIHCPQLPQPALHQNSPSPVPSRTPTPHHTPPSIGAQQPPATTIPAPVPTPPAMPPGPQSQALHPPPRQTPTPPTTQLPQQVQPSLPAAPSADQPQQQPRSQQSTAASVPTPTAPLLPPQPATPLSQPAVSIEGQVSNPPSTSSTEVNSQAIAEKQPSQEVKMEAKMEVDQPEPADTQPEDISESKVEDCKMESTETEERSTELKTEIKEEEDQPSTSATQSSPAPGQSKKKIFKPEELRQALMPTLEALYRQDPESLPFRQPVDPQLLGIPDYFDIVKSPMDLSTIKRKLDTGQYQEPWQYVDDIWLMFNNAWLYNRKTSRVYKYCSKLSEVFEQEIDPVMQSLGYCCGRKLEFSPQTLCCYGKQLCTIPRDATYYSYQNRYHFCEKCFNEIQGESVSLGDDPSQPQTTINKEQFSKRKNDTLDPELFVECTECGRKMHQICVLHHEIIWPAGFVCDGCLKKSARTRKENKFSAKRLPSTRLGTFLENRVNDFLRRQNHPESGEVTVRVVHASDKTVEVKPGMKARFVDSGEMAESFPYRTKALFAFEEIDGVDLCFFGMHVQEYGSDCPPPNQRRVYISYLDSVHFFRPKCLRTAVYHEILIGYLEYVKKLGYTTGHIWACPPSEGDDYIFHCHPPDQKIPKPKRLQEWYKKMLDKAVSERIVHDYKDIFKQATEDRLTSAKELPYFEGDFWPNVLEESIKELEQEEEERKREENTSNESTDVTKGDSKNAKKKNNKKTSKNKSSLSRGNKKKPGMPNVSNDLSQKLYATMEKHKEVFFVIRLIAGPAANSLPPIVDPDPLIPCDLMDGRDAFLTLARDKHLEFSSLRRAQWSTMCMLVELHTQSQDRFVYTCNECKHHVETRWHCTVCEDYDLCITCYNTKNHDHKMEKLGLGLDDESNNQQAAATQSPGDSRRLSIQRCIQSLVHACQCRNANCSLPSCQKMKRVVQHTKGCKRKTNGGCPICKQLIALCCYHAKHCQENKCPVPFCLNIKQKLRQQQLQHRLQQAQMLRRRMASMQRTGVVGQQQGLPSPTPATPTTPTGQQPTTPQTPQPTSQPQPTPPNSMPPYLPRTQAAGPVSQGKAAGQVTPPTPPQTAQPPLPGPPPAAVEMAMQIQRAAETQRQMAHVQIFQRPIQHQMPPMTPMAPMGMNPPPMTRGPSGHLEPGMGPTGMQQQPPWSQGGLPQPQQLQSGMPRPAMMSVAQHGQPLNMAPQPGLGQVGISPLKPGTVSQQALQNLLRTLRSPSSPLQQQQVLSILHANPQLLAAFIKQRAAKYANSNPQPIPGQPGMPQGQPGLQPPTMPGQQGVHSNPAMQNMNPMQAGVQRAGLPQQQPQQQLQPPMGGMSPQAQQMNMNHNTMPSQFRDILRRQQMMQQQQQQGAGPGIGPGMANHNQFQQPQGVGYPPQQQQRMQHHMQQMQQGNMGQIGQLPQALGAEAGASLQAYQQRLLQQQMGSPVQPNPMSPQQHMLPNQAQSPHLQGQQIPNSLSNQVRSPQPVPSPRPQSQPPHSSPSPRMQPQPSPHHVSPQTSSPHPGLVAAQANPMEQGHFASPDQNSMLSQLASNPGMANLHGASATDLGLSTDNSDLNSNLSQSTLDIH
# pKd: −log10 of the molar value.
# Molecular target: Histone acetyltransferase p300 (Homo sapiens, UniProt Q09472)
# Assay: Binding affinity to p300 (unknown origin) by SPR assay
structure (smiles),measurement,value
CO[C@H]1CC[C@H](n2c([C@@H]3CCCC(=O)N3c3ccc(F)c(F)c3)nc3cc(-c4c(C)noc4C)ccc32)CC1 [INOBRODIB],pKd,8.77
